The list is not random: actives were taken first. Their share in the collection is about 16%.
uPA generation: cell surface uPA generation inhibition | cell surface uPA generation assay, qHTS | Potency, µM (highest dose often 38.3 µM), for inactives: at the highest dose activity change, negative = inhibition, hits mostly inhibitors | hit rate 0.31% among 330,000; active = well fitted inhibition curve with a large enough effect; inconclusive = small, poorly fitted or top-dose-only effect; inactive = no such curve, though single readings can be large or run the other way; tested in mouse RAW 264.7 cells; note: potency is the fitted concentration of half-maximal effect; % is set by controls: 0 for no effect and ±100 for the full control effect; nearly all actives have a fitted effect of over 55% in size
miR-21 reporter: miR-21 reporter, rising signal. HeLa miR-21 FLuc reporter, luciferase, 48 h. Potency, µM (titrated, usually from 38.3 µM), without a hit: at the top dose reporter change, positive = more light. 340,000 tested, under 10 active. AID 2288; active = well fitted rising curve with a large enough effect; inconclusive = small, poorly fitted or top-dose-only effect; inactive = no such curve, though single readings can be large or run the other way;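 also: % of control where 0% means no effect; miR-21 action dims this reporter so a rising signal means less miR-21 action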
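HeLa cells stably expressing CMV-driven firefly luciferase with a downstream miR-21 binding sequence, endogenously expressing miR-21, were treated with titrations (up to about 40uM final) for 48 hours at 37 degree Celsius. Luciferase luminescence was read after lysis.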
DT40 TDP1 no CPT: qHTS for Inhibitors of human tyrosyl-DNA phosphodiesterase 1 (TDP1): qHTS in cells in absence of CPT; DT40 Tdp1-/- hTDP1 cells, no CPT, ATP luminescence, 48 h; Potency, µM (top dose mostly 46.2 µM), without a hit: top-dose activity change, negative = growth inhibition, actives largely listed as inhibitors; hit rate 15% among 420,000; AID 686978, 2013; note: potency is the fitted concentration of half-maximal effect; % is set by controls: 0 for no effect and ±100 for the full control effect; nearly all actives have a fitted effect of over 55% in size
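Chicken DT40 Tdp1-/- cells stably complemented with human TDP1 were seeded at 400 cells/well with DMSO in place of 20 nM camptothecin. After compound pinning, cells grew at least 48 hr at 37 °C; viability read by CellTiter-Glo luminescence.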
DT40 TDP1 CPT: growth inhibition of DT40 Tdp1-/-;hTDP1 cells with camptothecin (screen for TDP1 inhibitors); Potency, µM (doses to about 46.2 µM), for the others: at the highest dose activity change, negative = growth inhibition, usual class: inhibitors; chicken DT40 Tdp1-/-;hTDP1 cells + 20 nM CPT, ATP luminescence, 48 h; hit rate 12% among 420,000; note: potency is the fitted concentration of half-maximal effect; % is set by controls: 0 for no effect and ±100 for the full control effect; nearly all actives have a fitted effect of over 55% in size
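Cell growth measured by CellTiter-Glo luminescence after a minimum 48 h, 37 C compound exposure with 20 nM CPT in Tdp1-knockout DT40 cells stably expressing hTDP1, seeded 400/well; qHTS titration format.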
TDP1 inh: TDP1 (human) enzyme inhibition | Q9NUW8 | recombinant TDP1, AlphaScreen DNA substrate cleavage | Potency, µM (doses to about 130 µM), inactives show at the highest dose activity change, negative = inhibition, actives largely listed as inhibitors | hit rate 0.28% among 350,000 | AID 485290; note: potency is the fitted concentration of half-maximal effect; % is set by controls: 0 for no effect and ±100 for the full control effect; nearly all actives have a fitted effect of over 40% in size
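AlphaScreen read-out: signal falls as enzyme removes the 3' tyrosine-FITC from a 5'-biotinylated DNA oligo (15 nM, 5 min, RT). Enzyme was E. coli-made recombinant Tdp1 at 1 nM, exposed to compound for 15 min beforehand; beads 10 ug/ml, 10 min.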
An asterisk follows results filed as active; ? = inconclusive; / = not tested or not shown; [ ] = another dose, or the depositor's remark. Unless noted, calls come from the whole dose curve; as a rule, active = well fitted curve in the direction sought with a large enough effect; inconclusive = small, poorly fitted or top-dose-only effect, or another doubt; inactive = no such curve, though single readings can be large; an effect the other way counts as inactive or inconclusive.

Below each SMILES: uPA generation	miR-21 reporter	DT40 TDP1 no CPT	DT40 TDP1 CPT	TDP1 inh
1: COc1c(C)cc(C(O)c2ncc(-c3ccccc3Cl)[nH]2)cc1C (centres undefined)
    /	/	?	-25%	/
2: COc1ccccc1-c1cnc(C(O)c2cc(C)c(OC)c(C)c2)[nH]1 (centres undefined)
    /	/	23µM*	23µM*	/
3: Cc1ccc2ccccc2c1C(O)c1ncc(-c2ccccc2Cl)[nH]1 (centres undefined)
    /	/	?	26µM*	/
4: O=C(O)CSc1nnc(COc2cccc3cccnc23)n1-c1cccc(C(F)(F)F)c1
    1%	0%	-5%	1%	3%
5: C[C@H](CO)N1C[C@H](C)[C@@H](CN(C)C)Oc2c(NC(=O)c3ccncc3)cccc2C1=O
    8%	/	-6%	0%	0%
6: CCc1ccc(Nc2nn(-c3ccc(OC(F)(F)F)cc3)nc2C(C)=O)cc1
    /	9%	-10%	-2%	-2%
7: BrC(=C\c1ccccc1)/C=N/Nc1ccc2nncn2n1
    -8%	18%	?	?	-4%
8: BrC(=C\c1ccccc1)/C=N/n1cnnc1
    ?	?	0.58µM*	0.29µM*	-2%
9: COc1ccccc1CNC(=O)c1cc(S(=O)(=O)N2CCCC(C)C2)cn1C (centres undefined)
    /	2%	?	?	3%
10: COc1ccccc1/C=C(/C(=O)OCC(=O)Nc1cc(C)ccc1C)c1ccccc1
    13%	-8%	21µM*	26µM*	0%
11: COc1ccccc1/C=C(/C(=O)OCC(=O)N(C)Cc1ccccc1)c1ccccc1
    9%	-10%	13µM*	?	-5%
12: CCCN(CC1CCCO1)C(=O)c1cc(COc2ccc(F)cc2F)on1 (centres undefined)
    -10%	-2%	?	?	3%
13: CN(Cc1ccccc1)C(=O)Nc1ccc(Cl)cc1
    -15%	/	-19%	-2%	/
14: C=C1CC(COc2ccc3c(C)c(Cl)c(=O)oc3c2)(c2ccccc2)OC1=O (centres undefined)
    25%	/	1.6µM*	1.6µM*	/
15: Cc1ccc(Cl)cc1NC(=O)C(C)n1nc(-c2ccccc2)ccc1=O (centres undefined)
    /	-7%	-20%	?	-2%
16: Nc1[nH]c(=S)nc2nnsc12
    /	/	11µM*	11µM*	/
17: Cc1c(-c2ccccc2)nc(N)c(C#N)c1-c1ccco1
    -3%	-12%	3%	1%	-5%
18: CC(C)Oc1ccc(/C=C(/NC(=O)c2ccccc2)C(=O)NCCC(=O)O)cc1
    1%	1%	8%	-2%	0%
19: O=[N+]([O-])c1ccc2c(c1)C=C/C2=C\c1ccc(C=S)cc1
    /	/	11µM*	?	/
20: C1=Cc2ccccc2/C1=C/c1ccc(/C=C2\C=Cc3ccccc32)cc1
    /	/	6%	8%	/
21: Nc1c(-c2nc(-c3ccc(Cl)cc3)no2)nnn1-c1ccc(C(F)(F)F)c(Cl)c1
    /	-12%	-2%	6%	5%
22: COc1cccc(CNS(=O)(=O)c2cc(Br)cc3c2N(C(C)=O)C(C)C3)c1 (centres undefined)
    11%	9%	?	-8%	3%
23: CCOc1ccc(N(CC)S(=O)(=O)c2cc(Br)cc3c2N(C(C)=O)C(C)C3)cc1 (centres undefined)
    /	?	7.3µM*	21µM*	9%
24: CC(=O)N1c2c(cc(Br)cc2S(=O)(=O)N2CCN(c3cccc(Cl)c3)CC2)CC1C (centres undefined)
    /	21%	9.2µM*	10µM*	0%
25: CCOc1ccc(OCC)c(NS(=O)(=O)c2cc(Br)cc3c2N(C(C)=O)C(C)C3)c1 (centres undefined)
    /	6%	13µM*	?	9%
26: Cc1ccccc1CNC(=O)c1cc(COc2ccc(F)cc2F)on1
    9%	-1%	-18%	?	/
27: CCC(NC(=O)c1cc(COc2cc(C)c(Cl)c(C)c2)on1)c1ccncc1 (centres undefined)
    6%	18%	21µM*	?	3%
28: CSc1ccccc1OCc1cc(C(=O)NC2CCc3ccccc32)no1 (centres undefined)
    -19%	-7%	7%	-11%	4%
29: CCC(NC(=O)c1cc(COc2ccc(Cl)cc2OC)on1)c1ccncc1 (centres undefined)
    -12%	-21%	?	?	4%
30: Cc1ccc(OCc2cc(C(=O)NCc3cc(F)ccc3C)no2)cn1
    -13%	-3%	?	16µM*	/
31: CCC(NC(=O)c1cc(COc2ccc(OC)cc2Cl)on1)c1ccncc1 (centres undefined)
    -4%	-14%	12µM*	?	2%
32: Cc1ccc(OCc2cc(C(=O)NC3CCc4ccccc43)no2)cn1 (centres undefined)
    -21%	14%	13µM*	18µM*	7%
33: COc1ccc(C(=O)CSc2nc(=O)n3ccc(C)cc3n2)cc1
    /	/	?	-29%	/
34: Cc1cccc(NC(=S)NNC(=O)c2sccc2C)c1
    /	-51%	-4%	-29%	6%
35: O=C(C1CCN(C2CCN(Cc3ccsc3)CC2)CC1)N1CCOCC1
    4%	-5%	4%	-1%	4%
36: CCn1nnc2cc(C(=O)N(CCOC)CC(=O)Nc3cccc(C)c3C)ccc21
    1%	/	-9%	-9%	0%[56.1 µM]
37: COc1ccc(OCc2cc(C(=O)NC3Cc4ccccc4C3)no2)c(Cl)c1
    -5%	-2%	3.7µM*	3.3µM*	3%
38: CCC(NC(=O)c1cc(COc2ccc(C)nc2)on1)c1ccc(C)cc1 (centres undefined)
    -23%	2%	?	16µM*	4%
39: COc1ccc(CC(=O)N/N=C(\C)c2ccc(Br)s2)cc1
    14%	/	-12%	4%	/
40: COc1ccccc1Nc1ccc(C(=O)NCc2cccs2)cn1
    1%	0%	-9%	0%	-3%

6 records drawn at random from the list so far:
Below each SMILES: uPA generation	miR-21 reporter	DT40 TDP1 no CPT	DT40 TDP1 CPT	TDP1 inh
39: COc1ccc(CC(=O)N/N=C(\C)c2ccc(Br)s2)cc1
    14%	/	-12%	4%	/
30: Cc1ccc(OCc2cc(C(=O)NCc3cc(F)ccc3C)no2)cn1
    -13%	-3%	?	16µM*	/
21: Nc1c(-c2nc(-c3ccc(Cl)cc3)no2)nnn1-c1ccc(C(F)(F)F)c(Cl)c1
    /	-12%	-2%	6%	5%
26: Cc1ccccc1CNC(=O)c1cc(COc2ccc(F)cc2F)on1
    9%	-1%	-18%	?	/
23: CCOc1ccc(N(CC)S(=O)(=O)c2cc(Br)cc3c2N(C(C)=O)C(C)C3)cc1 (centres undefined)
    /	?	7.3µM*	21µM*	9%
32: Cc1ccc(OCc2cc(C(=O)NC3CCc4ccccc43)no2)cn1 (centres undefined)
    -21%	14%	13µM*	18µM*	7%

(cont.)
Below each SMILES: uPA generation	miR-21 reporter	DT40 TDP1 no CPT	DT40 TDP1 CPT	TDP1 inh
41: CC(C)OCCCNC(=O)c1ccc2c(=O)n(CCc3ccccc3)c(=O)[nH]c2c1
    /	-6%	-18%	-2%	0%
42: COc1ccccc1Nc1nn2c(=O)c3ccc(C(=O)NCCCOC(C)C)cc3nc2s1
    /	14%	4.1µM*	5.2µM*	6%
43: Cc1ccc(C)c(Nc2nn3c(=O)c4ccc(C(=O)NCc5cccs5)cc4nc3s2)c1
    /	?	15µM*	?	2%
44: COc1ccccc1Nc1nn2c(=O)c3ccc(C(=O)NCc4cccs4)cc3nc2s1
    /	?	16µM*	13µM*	/
45: O=C(Cc1ccccc1)NCCN1CCCC1
    1%	-2%	6%	-19%	/
46: COC(=O)Cc1c(O)ccn(C2CC2)c1=O
    /	1%	-3%	0%	3%
47: CC1(C)CC(=O)C2=C(C1)Nc1ccccc1NC2c1cc(Cl)ccc1O (centres undefined)
    1%	8%	23µM*	18µM*	4%
